This note sets out measurements from ChEMBL document CHEMBL6074692, “Design, synthesis, and evaluation of novel benzofuran and pyrazole-based derivatives as dual AChE/BuChE inhibitors with antioxidant properties for Alzheimer's disease management” (Eur J Med Chem, 2025).

Chains of the proteins cited; added tags and fusions are not shown.
UniProt P06276, whole entry: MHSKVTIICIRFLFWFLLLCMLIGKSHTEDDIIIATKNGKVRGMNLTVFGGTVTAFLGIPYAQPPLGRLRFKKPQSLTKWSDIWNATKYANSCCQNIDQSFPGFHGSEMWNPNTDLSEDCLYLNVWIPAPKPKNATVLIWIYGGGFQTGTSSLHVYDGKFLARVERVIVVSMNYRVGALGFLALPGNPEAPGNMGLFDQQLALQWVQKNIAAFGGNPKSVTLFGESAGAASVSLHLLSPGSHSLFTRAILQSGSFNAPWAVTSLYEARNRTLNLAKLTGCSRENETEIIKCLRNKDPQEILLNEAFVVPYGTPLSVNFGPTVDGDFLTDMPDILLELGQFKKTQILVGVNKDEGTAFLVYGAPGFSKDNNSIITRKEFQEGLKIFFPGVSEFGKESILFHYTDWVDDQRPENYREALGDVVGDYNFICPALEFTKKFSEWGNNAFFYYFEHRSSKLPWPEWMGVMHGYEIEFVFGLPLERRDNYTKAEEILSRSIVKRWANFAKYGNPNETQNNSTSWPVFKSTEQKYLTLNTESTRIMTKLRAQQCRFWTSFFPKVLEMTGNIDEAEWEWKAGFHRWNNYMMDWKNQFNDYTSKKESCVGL

In this test the target is Cholinesterase (Homo sapiens, UniProt P06276). Briefly: Inhibition of BuChE (unknown origin).

What is called IC50 is the concentration at which inhibition is half-maximal. As to `CCN(C)C(=O)Oc1cccc([C@H](C)N(C)C)c1` [RIVASTIGMINE], the IC50 was 11.6 µM.
